Data from BindingDB's records for doi:10.1016/s0014-2999(00)00037-6 (Eli Lilly, 2000).

Amino acid sequences for entries named in this document (tags omitted). A change or cut given only in a name is not applied to a line headed by its entry.
UniProt P20309, whole entry: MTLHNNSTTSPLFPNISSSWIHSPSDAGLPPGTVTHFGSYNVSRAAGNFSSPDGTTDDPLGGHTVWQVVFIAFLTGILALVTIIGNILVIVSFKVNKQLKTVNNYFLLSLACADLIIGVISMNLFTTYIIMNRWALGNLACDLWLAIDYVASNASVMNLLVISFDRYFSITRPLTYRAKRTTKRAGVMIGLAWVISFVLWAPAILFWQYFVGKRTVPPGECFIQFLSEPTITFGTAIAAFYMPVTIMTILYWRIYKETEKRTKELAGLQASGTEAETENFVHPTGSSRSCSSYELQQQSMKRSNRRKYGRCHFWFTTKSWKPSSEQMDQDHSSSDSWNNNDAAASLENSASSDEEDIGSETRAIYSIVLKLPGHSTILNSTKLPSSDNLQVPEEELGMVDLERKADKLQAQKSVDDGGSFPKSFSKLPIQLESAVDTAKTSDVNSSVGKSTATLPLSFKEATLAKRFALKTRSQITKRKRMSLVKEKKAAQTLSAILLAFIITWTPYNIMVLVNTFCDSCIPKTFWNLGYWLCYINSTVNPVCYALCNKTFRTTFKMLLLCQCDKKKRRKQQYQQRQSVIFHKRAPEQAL
UniProt P11229: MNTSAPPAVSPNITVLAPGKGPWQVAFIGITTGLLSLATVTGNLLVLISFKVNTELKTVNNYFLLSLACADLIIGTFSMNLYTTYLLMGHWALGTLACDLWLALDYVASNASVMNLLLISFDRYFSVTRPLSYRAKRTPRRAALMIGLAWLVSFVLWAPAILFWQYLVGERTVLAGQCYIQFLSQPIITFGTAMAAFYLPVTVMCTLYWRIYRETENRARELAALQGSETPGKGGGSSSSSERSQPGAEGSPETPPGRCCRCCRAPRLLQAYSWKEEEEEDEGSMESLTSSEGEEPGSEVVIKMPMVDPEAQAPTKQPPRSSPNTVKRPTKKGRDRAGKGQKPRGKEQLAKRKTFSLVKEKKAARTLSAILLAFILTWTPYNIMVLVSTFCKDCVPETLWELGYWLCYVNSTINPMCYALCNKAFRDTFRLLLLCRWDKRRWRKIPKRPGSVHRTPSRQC

How the values were obtained:
[1] = biological target: Muscarinic acetylcholine receptor M3 (Homo sapiens, UniProt P20309)
[2] = biological target: Muscarinic acetylcholine receptor M1 (Homo sapiens, UniProt P11229)

Ki [1]: 109 nM
Ki [2]: 31 nM
SMILES: CN1CCN(C2=c3ccccc3=Nc3ccc(Cl)cc3N2)CC1 [6-chloro-10-(4-methylpiperazin-1-yl)-2,9-diazatricyclo[9.4.0.0^{3,8}]pentadeca-1,3(8),4,6,10,12,14-heptaene]
